Measurements taken from patent US8829028B2, “5-HT4 receptor antagonists for the treatment of heart failure” (Serodus AS, priority 2002, dated 2014).

The chains behind the UniProt entries cited, without tags or fusion partners. Where a name states a change or a piece, a line headed by the entry shows the natural chain unless it says otherwise.
UniProt Q13639: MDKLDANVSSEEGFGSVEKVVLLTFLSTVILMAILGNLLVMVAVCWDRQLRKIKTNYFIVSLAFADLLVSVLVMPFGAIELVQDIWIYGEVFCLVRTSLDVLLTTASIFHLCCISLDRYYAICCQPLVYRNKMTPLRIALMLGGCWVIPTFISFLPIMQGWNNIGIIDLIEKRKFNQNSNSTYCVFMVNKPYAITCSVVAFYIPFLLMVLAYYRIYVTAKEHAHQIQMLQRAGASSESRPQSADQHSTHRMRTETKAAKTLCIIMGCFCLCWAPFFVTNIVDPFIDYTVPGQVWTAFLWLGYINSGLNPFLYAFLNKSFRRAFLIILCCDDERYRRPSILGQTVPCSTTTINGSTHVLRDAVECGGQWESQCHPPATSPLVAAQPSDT
UniProt Q62758: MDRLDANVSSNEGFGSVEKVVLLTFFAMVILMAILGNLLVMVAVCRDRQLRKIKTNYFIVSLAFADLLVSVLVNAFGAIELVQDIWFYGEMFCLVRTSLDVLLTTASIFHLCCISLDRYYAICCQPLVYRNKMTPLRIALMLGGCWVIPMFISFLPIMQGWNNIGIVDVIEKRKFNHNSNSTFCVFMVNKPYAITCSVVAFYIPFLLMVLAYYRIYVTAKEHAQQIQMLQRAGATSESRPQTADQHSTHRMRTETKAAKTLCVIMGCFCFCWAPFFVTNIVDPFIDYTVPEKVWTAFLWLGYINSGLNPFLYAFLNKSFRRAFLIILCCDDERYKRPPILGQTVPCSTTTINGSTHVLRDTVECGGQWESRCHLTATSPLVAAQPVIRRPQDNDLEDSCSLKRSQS

Experiments:
[1] = target: 5-HT4 receptor (Homo sapiens, UniProt Q13639); conditions: cited from earlier work
[2] = system: papillary muscles from Chronic heart failure rats; test: Inotropic and lusitropic response of isolated papillary muscles from post-MI Chronic heart failure rats (organ bath, 1 Hz); format: cell-based, rat; conditions: 10 μmol/l serotonin; prazosin, atropine and timolol present
Experimental: Male, Wistar rats (Mollegaard Breeding and Research Centre, Skensved, Denmark), weighing about 320 g were intubated and ventilated with 68% N2O, 29% O2 and 2-3% Isofluran (Abbot Laboratories, USA). An extensive myocardial infarction (MI) was induced by a proximal ligation of the left coronary artery. Six weeks later the rats were anaesthetized and ventilated on the respirator with 2.2% Isofluran. Left ventricular pressures were measured (Sjaastad et al., 2000, J. Appl. Physiol, 89: 1445-1454), and Chronic heart failure rats were included in the study if left ventricular end diastolic pressure (LVEDP) was >15 mm Hg. […]
The muscles were field stimulated with alternating polarity at 1 Hz with impulses of 5 msec duration and current about 20% above individual threshold (10-15 mA, determined in each experiment). […] The force was recorded and analysed as previously described (Skomedal et al., 1997, J. Pharmacol. Exp. Ther. 280: 721-729). […] Averaged contraction-relaxation cycles (CRC) were calculated for different experimental periods, and these cycles were used to determine descriptive parameters like maximal development of force (dF/dt)max, time to peak force (TPF) and time to relaxation to 20% level (TR2O). Relaxation time (RT) was calculated as TR2O-TPF. […] Lusitropic responses were expressed as reduction in RT. […]

[3] = target: T1, 5-HT4 receptor (Rattus norvegicus, UniProt Q62758); test: Antagonism of the serotonin inotropic response by 5-HT4 antagonists in post-MI rat papillary muscle (reversal, curve shift, Schild Kb); format: cell-based
T1 construct: The papillary muscles were mounted in organ baths; from tissue; host or cells: rat posterior left ventricular papillary muscle (post-MI or aortic-banding heart failure)
Experimental: (§1) The muscles were field stimulated with alternating polarity at 1 Hz with impulses of 5 msec duration and current about 20% above individual threshold (10-15 mA, determined in each experiment). The isometrically contracting muscles were stretched to the maximum of their length-tension curve. The force was recorded and analysed as previously described (Skomedal et al., 1997, J. Pharmacol. Exp. Ther. 280: 721-729). The muscles were allowed to equilibrate for 90 minutes. […] Averaged contraction-relaxation cycles (CRC) were calculated for different experimental periods, and these cycles were used to determine descriptive parameters like maximal development of force (dF/dt)max, time to peak force (TPF) and time to relaxation to 20% level (TR2O). Relaxation time (RT) was calculated as TR2O-TPF. (dF/dt)max was used as an index of contractility. Inotropic responses induced by agonists were expressed by increase in (dF/dt)max. RT was used as index of relaxation. Lusitropic responses were expressed as reduction in RT. Mechanical response at the end of the equilibrium period was used as the control response.
Agonist was added cumulatively or as a single bolus directly to the organ baths and was completely mixed in the solution within 2-3 seconds. […] The different agonists were added directly to the organ baths in increasing concentrations until supramaximal concentrations of agonist were obtained with respect to maximal inotropic response.
The responses for each concentration of agonist were generally calculated as percent of maximal response. The concentration-response curves constructed from papillary muscle experiment were constructed according to Ariens and Simonis (1964, supra), by estimating centiles (EC10 to EC100) for each single experiment and calculating the corresponding means. This calculation provides mean curves that express the response as fractional response or percent of maximum and display horizontal positioning and the correct mean slope of the curves. The horizontal positioning of the concentration-response curves was expressed as pEC50-values (=−log EC50). Data are expressed as mean±standard error of the mean (SEM) and the number of animals expressed as n. The significance levels of differences were calculated according to Students t-test. P<0.05 is considered statistically significant. The inhibition constants Kb were calculated from the Schild equation, based on the relative shifts of the concentration-response curves for receptor stimulation.

[4] = system: 5-HT2A receptor (Rattus norvegicus); conditions: papillary muscle
Experimental: as §1, with “RT was used as index of relaxation.” left out, “Mechanical response at the end of the equilibrium period was used as the control response.” left out
The responses for each concentration of agonist were generally calculated as percent of maximal response. […] The horizontal positioning of the concentration-response curves was expressed as pEC50-values (=−log EC50). Data are expressed as mean±standard error of the mean (SEM) and the number of animals expressed as n. The significance levels of differences were calculated according to Students t-test. […]

Row | Compound | selectivity for the 5-HT4 receptor over all other known receptors [1] | time from addition of serotonin to 50% relative inotropic response [2] [s] | EC50 ([3]; pEC50 of serotonin) [µM] | EC50 ([3]; pEC50 of serotonin, absence of GR113808, 0.1 μmol/l ketanserin present, SEM, n=6) [µM] | EC50 ([3]; pEC50 value for serotonin) | EC50 ([3]; presence of 5 nM RS39604, 6 week post MI rats, read-out: pEC50 value for serotonin (converted)) [µM] | maximal inotropic response at the top of the concentration-response curve [4] [%]
1 | Cn1cc(C(=O)OCC2CCN(CCNS(C)(=O)=O)CC2)c2ccccc21 [GR113808, {1-[2-(methyl-sulphonylamino)ethyl]-4-piperidinyl}methyl 1-methyl-1H-indole-3-carboxylate] | at least 1000 fold | – | – | – | – | – | –
2 | Cl.NCCc1c[nH]c2ccc(O)cc12 [serotonin, 5-hydroxytryptamine hydrochloride] | – | 22 ± 2.0 | 0.0479 | 0.024 | 0.0562 µM and 0.407 µM | 0.55 | 17.5±1.9

Where “and” joins values, the source holds several entries; their conditions need not be identical. Equal entries are not always repeated. Where two headings read alike, the source gives them in different places.
